Our source for the activity change, negative = inhibition values is PubChem BioAssay AID1347428 (National Center for Advancing Translational Sciences (NCATS), 2020).

Sequences of proteins named here, by UniProt entry; tags and fusion partners are left off. A change or cut given only in a name is not applied to a line headed by its entry.
UniProt Q9GZX7: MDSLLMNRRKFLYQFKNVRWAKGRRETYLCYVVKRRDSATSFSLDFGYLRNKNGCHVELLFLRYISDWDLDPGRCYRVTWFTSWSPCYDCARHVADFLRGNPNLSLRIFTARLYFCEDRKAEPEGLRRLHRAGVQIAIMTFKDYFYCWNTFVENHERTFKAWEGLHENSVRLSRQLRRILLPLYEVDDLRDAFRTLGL

“And” between values parts separate entries of the source, which are not always exact repeats. Identical values can stand only once. Only a part is listed here, and it is no random draw. Results filed as inconclusive are left out. The source made the active and inactive calls. The call rests on the fitted dose curve; in most records, active means well fitted inhibition curve with a large enough effect; inconclusive means small, poorly fitted or top-dose-only effect; inactive means no such curve, though single readings can be large or run the other way.
On the % scale 0 is the no-effect control and ±100 the full control effect.

This assay addresses Single-stranded DNA cytosine deaminase (Homo sapiens) (UniProt Q9GZX7). Description: Primary qHTS assay for inhibitors of Activation Induced Cytidine Deaminase (AID): AID signal. Further: nearly all actives have a fitted effect of over 25% in size. To be noted: AID deamination FRET fluorescence, UDG-coupled, 4 h; at 115 µM (top of the series). The text has this:
Assay Provider (PI) Patricia Gearhart Ph.D.
National Institute on Aging
National Institute of Health (NIH), Bethesda, MD
Assay Provider (PI) Rahul Kohli Ph.D.
Perelman School of Medicine
University of Pennsylvania, Philadelphia, PA
Activation-Induced Deaminase (AID) is a cytosine deaminase which converts cytosine into uracil within stretches of ssDNA. The presence of uracil in DNA initiates a cascade of mutagenic DNA repair to introduce point mutations and DNA double strand breaks. Specific targeting of AID to the immunoglobulin heavy chain loci (Igh) promotes mutagenesis in the antibody variable region for somatic hypermutation (SHM) or switch regions leading to class switch recombination (CSR). However, AID also plays a role in accumulating unnecessary mutations across the genome. Mis-targeting of AID results in the initiation of tumor development and leads to greater drug resistance among cancer cells when continually expressed. To identify an AID inhibitor, a small molecule library will be screened in collaboration with NCATS core facility at NIH. To confirm biological function, inhibitors will be examined in an in vitro murine B-cell activation assay and subsequent secondary validation screens. Top molecules will be further screened to identify inhibitory efficacy against a wild type primary splenocytes assay. Using these approaches, we hope to identify a small molecule with great efficacy and low toxicity for use as a molecular probe to further characterize AID's intricacies, or even as a therapeutic.
A FRET based analysis of cytosine deamination, was developed to identify potential inhibitors of AID catalytic activity. This screen has two signal output, Read 1 evaluates the AID inhibition response. The second readout (Read 2) evaluates UDG response and is uses as a counterscreen to exclude false positive inhibitors. Inhibition in AID and inactivity in the UDG signal is the desired outcome for this assay.
SEQUENCE No. (e.g., 1, 2, 3, etc.); […] (e.g., Cells, Incubation, Reagent, etc.); VALUE; DESCRIPTION
1a; Reagent; 3 uL; [4/3x] 1 uM AID/2.67 U/mL UDG
1b; Reagent; 3 uL; 2 U/mL UDG
1c; Reagent; 3 uL; 1 uM AID
2a; Compound; 46 nL; Follow-up plates (0.64 uM - 10 mM)
2b; Control; 46 nL; ATA ([…] - 10 mM)
3; Time; 10 min; incubation at room temperature
5; Time; 4 hr; incubation at room temperature
6; Reagent; 4 uL; [2x] 250 mM NaOH
7; Time; 15 sec; centrifuge at 1000 rpm
8; Time; 30 min; incubation at room temperature
9a; Detection; fluorescence (Read 1: AID); EnVision (PerkinElmer) plate reader, 540 excitation and 590 emission filters
9b; Detection; fluorescence (Read 2: UDG); EnVision (PerkinElmer) plate reader, 560 excitation and 665 emission filters
NOTES (numbers refer to sequence above)
1a; Reagents were dispensed in a medium-binding black solid-bottom Greiner plates (789176F) using a BioRptr liquid dispenser. Dispense 3 uL of [4/3x] 1 uM AID (provided by Kohli lab) and [4/3x] 2 U/mL UDG (NEB M0280L) into columns 1, 2, 5 to 48.
1b; Dispense 3 uL of [4/3x] 2 U/mL UDG into column 3.
1c; Dispense 3 uL of [4/3x] 1 uM AID into column 4.
2a; Compound (7-points [uM] (0.64; 3.2; 16; 80; 400; 2,000; 10,000; 20,000) double pin-transferred (Dip Factor = 2) using the Kalypsys (Wako USA) pintool equipped with a 1536 pinhead for a final concentration range of 7.32 nM - 114 uM.
2b; 10 mM Aurintricarboxylic Acid (Sigma A1895) (ATA, 8-point, n = 2, 1:2.5 dilution in column 2) double pin-transferred (Dip Factor = 2) using the Kalypsys (Wako USA) pintool equipped with a 1536 pinhead for a [final] range of 186 nM - 114 uM.
3; Room temperature incubation.
4; Dispense 1 uL of substrate mixture from the Kohli lab [4x] […] DJC20 and [4x] 250 nM DJC23 into columns 1 to 48 .
5; Room temperature incubation.
6; Dispense 4 uL of substrate mixture [2x] 250 mM NaOH into columns 1 to 48.
7; Centrifugation step to remove bubbles.
8; Room temperature incubation
9a; Fluorescence signal (column label AID) was read using the EnVision plate reader. […]
With `CN(C(=O)Cc1ccccc1)[C@@H]1CC[C@]2(CCCO2)C[C@H]1N1CCCC1`, the activity change, negative = inhibition was inactive: 3.85%.

As to `Cc1ccc(C(=O)NC(Sc2ccccc2)C(Cl)(Cl)Cl)cc1` (configuration not stated), the activity change, negative = inhibition was inactive: 2.56%.

In the case of `BrCC1CN=C(Nc2ccccc2)S1` (configuration not stated), the activity change, negative = inhibition is inactive: -5.7%.

Consider `Fc1ccc(NC2=NCC(CI)S2)c(F)c1` (configuration not stated), for which the activity change, negative = inhibition is inactive: 7.8%.

Consider `CN(C(=O)Cc1ccc(Cl)c(Cl)c1)[C@@H]1CC[C@]2(CCCO2)C[C@H]1N1CCCC1`, for which the activity change, negative = inhibition is inactive: -2.75%.

Consider `NNc1ccc([N+](=O)[O-])cc1[N+](=O)[O-]`, for which the activity change, negative = inhibition was inactive: 1.52%.

`Cc1ccc(C(=O)NC(Sc2ccc(Cl)cc2)C(Cl)(Cl)Cl)cc1` (configuration not stated): the activity change, negative = inhibition is inactive: 1.39%.

Consider `ClCCNC1C2CC3CC(C2)CC1C3` (configuration not stated), for which the activity change, negative = inhibition is inactive: -8.75%.

Take `O=C(/C=C/c1ccccc1)NC(Sc1ccc(Cl)cc1)C(Cl)(Cl)Cl` (configuration not stated): the activity change, negative = inhibition was inactive: -6.87%.

For `Cc1cccc(C(=O)NC(Sc2ccccc2)C(Cl)(Cl)Cl)c1` (configuration not stated), the activity change, negative = inhibition is inactive: 0.931%.

As for `Clc1cccc(NC2=NCC(CBr)S2)c1` (configuration not stated), the activity change, negative = inhibition was inactive: 12.8%.

As to `O=C(NC(Sc1ccccc1)C(Cl)(Cl)Cl)c1ccc(Cl)cc1` (configuration not stated), the activity change, negative = inhibition is inactive: -5.47%.

On to `Fc1ccc(CNC2=NCC(CBr)S2)cc1` (configuration not stated), for which the activity change, negative = inhibition is inactive: 0.512%.

As to `O=C(NC(Sc1ccc(Cl)cc1)C(Cl)(Cl)Cl)c1ccccc1` (configuration not stated), the activity change, negative = inhibition was inactive: -0.0164%.

In the case of `CN(C(=O)Cc1ccc(Cl)c(Cl)c1)[C@H]1CCCC[C@@H]1N1CCCC1`, the activity change, negative = inhibition was inactive: -1.72% and inactive: -1.41%.

Take `BrCCNCCc1ccncc1`: the activity change, negative = inhibition is inactive: 13.1%.

As to `CN(C(=O)Cc1ccc(Cl)c(Cl)c1)[C@@H]1CCCC[C@@H]1N1CCCC1`, the activity change, negative = inhibition is inactive: -9.87%.
